Yeast mating assay B: variants of the scFv Ab-14

The measurements come from Li et al. 2023 (doi:10.1038/s41467-023-39022-2) through the FLAb antibody collection.

All variants were tested on one target, the spike HR2 peptide PDVDLGDISGINAS (SARS-CoV-2).

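The parent was found by panning a naive human phage display library on the peptide. The variants were designed computationally from a first round of random CDR variants and then made and measured. Group labels follow the data file (En: ensemble of fine-tuned language models; GP: Gaussian process model; HC: hill climbing; Gen: genetic algorithm; Gibbs: Gibbs sampling; a sequence that several methods proposed may carry one label only). In AlphaSeq, yeast of one mating type display the scFv and yeast of the other type display the target. Binding brings cells together so that they mate, and sequencing counts the barcode pairs among the diploids. Scores were corrected for input abundance and mapped to Kd with protein pairs of known affinity run in the same pool. The assay was run in six technical replicates.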

Parent: Ab-14, a human scFv built as VH, three GGGGS repeats, VL. Only the CDRs of the light chain vary.
VH: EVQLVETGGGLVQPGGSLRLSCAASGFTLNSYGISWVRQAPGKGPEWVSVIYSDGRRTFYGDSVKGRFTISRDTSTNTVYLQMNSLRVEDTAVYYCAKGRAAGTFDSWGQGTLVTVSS
VL: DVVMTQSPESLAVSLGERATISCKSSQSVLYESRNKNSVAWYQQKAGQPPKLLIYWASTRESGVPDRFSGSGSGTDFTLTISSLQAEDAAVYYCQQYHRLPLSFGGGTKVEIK

Each variant is given by its three light chain CDRs, as the data file delimits them; those of the parent are KSSQSVLYESRNKNSVA, WASTRES, QQYHRLPLS.
Variants here have more than six changes.
The Kd shown is the geometric mean over detected replicates; a lower Kd is a better binder.
A pair that was not seen in any replicate is written "no signal"; this usually means weak binding, but a binder can also be missed.
Nonspecific signal, from three strains lacking the peptide, appeared in 4% of pairings of all light chain designs, centred on 430 nM (5% of these signals below 38 nM); values are not corrected for it.

With MITDAWNTLGNDRNNIA | HNNVRED | QQYQQLPLV [En_Gibbs] the result was 6.3 nM (6 of 6 replicates). With FMGGTKTMQSNEIGNVA | DMNERFA | QQYFQLPLS [En_Gibbs] the result was 8.6 nM (6 of 6 replicates). With KLQQSDLYESRNKNNVA | EATLREQ | QQYHRLPLS [GP_Gibbs] the result was 800 pM (6 of 6 replicates). Variant HISQMVMYGSCNKNNVA | QVSTREE | QSYHRLPLS [En_HC] gave 110 nM (5 of 6 replicates). For TIGHTLMQGIRNRSNVA | EVSQRLN | QQYDRLPLI [En_Gen], the assay gave 71 nM (6 of 6 replicates). Variant TLHGNIQYGGIMWSSIA | DNVQRAN | QQYTRLPLS [En_Gibbs] gave 9.4 nM (6 of 6 replicates).

For QLAVERGQEYKAGAAIA | GKTEKEH | QQYAMLPLS [En_Gibbs], the assay gave 18 nM (6 of 6 replicates). Variant MIAGSLESQEANQAPVA | SATCREP | QQYSRLPLM [En_Gibbs] showed 6.1 nM (6 of 6 replicates). Variant MISQLYNMGQFAINSVA | QASTRNA | QQYDRLPLT [En_Gen] showed 67 nM (6 of 6 replicates). Variant MMSQVTGLGTRHRNNVA | QTSTRED | QQYDRLPLV [En_Gen] gave 7.2 nM (6 of 6 replicates). Variant KLWGRCMDEELINYNVA | NGRLAVQ | QQYDRLPLS [En_Gibbs] showed 86 nM (2 of 6 replicates). Variant MITAVLRGVGRDKNSVA | NAQTRES | QHYNRLPLS [En_HC] showed 51 nM (6 of 6 replicates).

With KISQSVNFLGKNKNSVA | QMSTRES | QQYDRLPLS [En_HC] the result was 1.7 nM (6 of 6 replicates). Variant HFSVETMEFMAKNKNIA | EVSTTML | QQYARLPFM [En_Gibbs] gave 10 nM (6 of 6 replicates). Variant KLGSSTRFESSNKASIA | DNSTREQ | QQYHRLPLS [En_HC] gave 48 nM (6 of 6 replicates). Variant KISQSWLYESRNINNVA | SCSMRES | QQYHRLPLS [GP_Gibbs] gave 8.1 nM (6 of 6 replicates). With HLSDTVMQGSYYKSSVA | QESTRAD | QQYHRLPLS [En_HC] the result was 25 nM (1 of 6 replicates). Variant KLMGSQQYESRWKNAVA | EASTRES | QQYHRLPLS [GP_Gibbs] showed 2.8 nM (6 of 6 replicates).

Variant HIDIINRGEDMKQDPIA | QADHREQ | QQYFQLPLI [En_Gibbs] showed 8.1 nM (6 of 6 replicates). For IVSQLMLWGMHAKNSIA | EAEMRIN | QQYHRLPLF [En_Gen], the assay gave no signal (0 of 6 replicates). Variant RITHSQLDYRNPEANIA | HESMKAV | QQYSQLPLT [En_Gibbs] showed 3.4 nM (6 of 6 replicates). With QLQIHDNGYIGMRNNVA | DGGMVRM | QQYARLPLM [En_Gibbs] the result was 2.0 nM (6 of 6 replicates). Variant TLTQVQGMESHNKNSVA | DLSTRGS | QQYDRLPLS [En_HC] gave 4.6 nM (6 of 6 replicates). Variant KISQMVKVGMTHGNSIA | EEATRAD | QQYHRLPLA [En_Gen] gave 3.4 nM (6 of 6 replicates).

Variant MLSQMFEGLSTSKNPVA | QVSTREE | QQYHRLPLS [En_HC] showed no signal (0 of 6 replicates). Variant KLSMQVMMESRNTNSVA | EANTREE | QQYHRLPLS [GP_Gibbs] showed 33 nM (6 of 6 replicates). Variant HINKFMSQIGGARNNVA | GDTTLAQ | QHYHRLPLS [En_Gibbs] showed no signal (0 of 6 replicates). For VLSATIENQYDEADNIA | DKTETSK | QQYARLPLS [En_Gibbs], the assay gave 32 nM (6 of 6 replicates). Variant SFTIEGLQQQEQYKSVA | GEQKTVD | QQYGRLPLS [En_Gibbs] showed 5.2 nM (6 of 6 replicates). Variant KLSIVGLHESIDKKSIA | ERSTREN | QQYHRLPLS [En_HC] gave 2.2 nM (6 of 6 replicates).

Variant HLGYATMLESSVRNSVA | NNSTREE | QQYDRLPLS [En_Gen] gave 26 nM (6 of 6 replicates). For KLTQHMRFEQKKKNNIA | EVTTRSK | QQYARLPLI [En_Gen], the assay gave 7.8 nM (6 of 6 replicates). With QLSHPSDSWQIHQDSIA | DDNLSLT | QQYHQLPLS [En_Gibbs] the result was 27 nM (1 of 6 replicates). Variant KISQMQRVGSTHNNSIA | EEATRAK | QQYHRLPLF [En_Gen] showed 19 nM (6 of 6 replicates). With KVSPSMLYEQRNKNSVA | SASTREN | QSYHRLPLS [GP_Gibbs] the result was 1.3 nM (6 of 6 replicates). For SVHFQGTTGEKNWESVA | ENSIRVE | QQYSHLPLL [En_Gibbs], the assay gave 78 nM (6 of 6 replicates).

With KVEQSNDYESRNKNSVA | NASQRLS | QQYHRLPLS [GP_Gibbs] the result was 4.1 nM (6 of 6 replicates). For KCSQNVLIMGRGPNNVA | EMTTREE | QQYDRLPLS [En_HC], the assay gave 12 nM (6 of 6 replicates). Variant KISMLYNYESTNKNSIA | EMETRES | QHYHRLPLS [En_HC] gave no signal (0 of 6 replicates). For MISDLTMYGSRNKNSVA | DSSTRGK | QQYHRLPLS [En_HC], the assay gave 440 pM (6 of 6 replicates). Variant HMSMLTLQGMYHRNSVA | QMTTREN | QQYDHLPLS [En_Gen] showed 33 nM (6 of 6 replicates). Variant QLQWYNTYATYSASNIA | DGAQRLN | QQYMRLPLM [En_Gibbs] gave 41 nM (5 of 6 replicates).

With KVYEMMAFLSSNRNNVA | DNSTRGS | QQYHRLPLS [En_HC] the result was 4.5 nM (6 of 6 replicates). With TISQMTSLFSQSIQNVA | EVSTREP | QQYDRLPLA [En_Gen] the result was 2.0 nM (6 of 6 replicates). Variant KLQQSVLMGSRNKNSVA | EASTRMV | QAYHRLPLS [GP_Gibbs] showed 2.6 nM (6 of 6 replicates). With HMHTLMYTANIGENSIA | DANLHVD | QQYFRLPIS [En_Gibbs] the result was 36 nM (6 of 6 replicates).

The first 4 entries again:

CDR-L1,CDR-L2,CDR-L3,group,Kd (apparent),seen in
MITDAWNTLGNDRNNIA,HNNVRED,QQYQQLPLV,En_Gibbs,6.3 nM,6/6
FMGGTKTMQSNEIGNVA,DMNERFA,QQYFQLPLS,En_Gibbs,8.6 nM,6/6
KLQQSDLYESRNKNNVA,EATLREQ,QQYHRLPLS,GP_Gibbs,800 pM,6/6
HISQMVMYGSCNKNNVA,QVSTREE,QSYHRLPLS,En_HC,110 nM,5/6

A sequence measured in both rounds can read differently, since the two assays cover different ranges.
The authors averaged sequences with at least three values out of six and counted those with two or fewer as poor binders.